This note sets out measurements from US20220291237A1 (priority 2021, published 2022).

Some test systems named below: CXCL1; MIG; TNFSF10.
What all share (set-up): species or system human

In the case of Silicon dioxide, the EFFECT entry in the experiment on CXCL1 is “Beneficial”; in the experiment on MIG, “Detrimental”; in the experiment on TNFSF10 it was “Detrimental”.
